For 1 compound, IC50 results are on record in ChEMBL document CHEMBL1134417, “Hypoxia-selective antitumor agents. 16. Nitroarylmethyl quaternary salts as bioreductive prodrugs of the alkylating agent mechlorethamine” (2001).

One may read the IC50 as the concentration that gives 50% inhibition.

Test [1] is described as follows: Ability to reduce cell density of UV4 cells to 50% after 4 hr of exposure to air.
The subject of the next test is EMT6. The test is described as follows: Ability to reduce cell density of EMT6 cells to 50% after 4 hr of exposure to air.
Test [2] in a line: Ability to reduce cell density of AA8 cells to 50% after 4 hr of exposure to air. To be noted: cho-aa8.
The next test concerns SK-OV-3. The test can be described thus: Ability to reduce cell density of SKOV3 cells to 50% after 4 hr of exposure to air.

Regarding `CN(CCCl)CCCl`, the IC50 in test [1] amounted to 29 nM; with EMT6, 150 nM; in test [2] it was 2500 nM; in the test with SK-OV-3, 1090 nM.
